{
  "source": "paper PMC8707461",
  "about": "“In Vitro and In Vivo Inhibition of MATE1 by Tyrosine Kinase Inhibitors” (Pharmaceutics, 2021)",
  "key": {"[1]": {"tested_on": "human OCT2, or MATE1 transporters", "settings": "oxaliplatin 50 µM"}, "[2]": {"tested_on": "mouse OCT2, or MATE1 transporters", "settings": "oxaliplatin 50 µM"}},
  "data": [
    {"compound": "O=C1[O][Pt]2([NH][C@@H]3CCCC[C@H]3[NH]2)[O]C1=O", "note": "[Oxaliplatin]", "values": [
      {"measurement": "increase in oxaliplatin uptake, human transporters vs empty vector", "setting": "[1]", "value": 3, "unit": "fold"},
      {"measurement": "increase in oxaliplatin uptake, murine transporters vs empty vector", "setting": "[2]", "value": 15, "unit": "fold"}
    ]}
  ]
}
